# From patent US9163256B2, “Mutant receptors and their use in a nuclear receptor-based inducible gene expression system” (priority 2004, dated 2015)
# Sequences of proteins named here, by UniProt entry; tags and fusion partners are left off.
# UniProt O77255, entry or part of it L506K: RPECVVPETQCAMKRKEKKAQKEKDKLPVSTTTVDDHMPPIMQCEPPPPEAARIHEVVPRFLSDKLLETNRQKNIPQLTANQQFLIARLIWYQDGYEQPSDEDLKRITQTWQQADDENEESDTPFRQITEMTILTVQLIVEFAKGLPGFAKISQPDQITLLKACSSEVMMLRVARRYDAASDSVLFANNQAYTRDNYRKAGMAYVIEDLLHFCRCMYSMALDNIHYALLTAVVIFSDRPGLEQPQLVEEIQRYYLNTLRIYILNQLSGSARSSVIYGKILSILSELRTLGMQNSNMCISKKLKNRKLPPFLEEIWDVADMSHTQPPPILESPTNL
# Target: CfEcR-DEF mutant L223K (Choristoneura fumiferana, UniProt O77255, L506K)
# Test: GAL4-driven luciferase reporter assay in NIH3T3 cells
# Type: cell-based
# Description: This construct was prepared in the same way as in switch 1.1 above except wild-type CfEcR-DEF was replaced with mutant CfEcR-DEF comprising a ligand binding domain comprising a substitution mutation selected from Table 1 below.
# DNAs were transfected into mouse NIH3T3 cells (ATCC) as follows. Standard methods for culture and maintenance of the cells were followed. Cells were harvested and plated 96-well plates at 2,500 cells per well, in 50 μL of growth medium containing 10% fetal bovine serum (FBS). Twenty-four hours later, the cells were treated with 35 μL of serum-free growth medium containing either dimethylsulfoxide (DMSO; control) or a DMSO solution of ligand. The cells were then transfected using Superfect (Qiagen Inc.) transfection reagent. For each well, 0.625 μL of Superfect was mixed with 14.2 μL of serum-free growth medium. 0.16 μg of reporter construct and 0.04 μg of each receptor construct were added to the transfection reagent mix. […]
# Reporter Assays: Cells were harvested 40 hours after adding ligands. […] Luciferase activity was measured using Dual-Luciferase reporter assay system from Promega Corporation following the manufacturer's instructions. Fold induction (FI) activities were calculated by dividing relative light units (“RLU”) in ligand treated cells with RLU in DMSO treated cells (untreated control).
structure (smiles),measurement,value
"CCc1c(C(=O)NN(C(=O)c2cc(OC)c(C)c(OC)c2)C(C=C(C)C(C)(C)C)C(C)(C)C)ccc2c1OCCO2 (stereo not shown) [RG-115898, 3,5-dimethoxy-4-methyl-benzoic acid N-(1-tert-butyl-3,4,4-trimethyl-pent-2-enyl)-N′-(5-ethyl-2,3-dihydro-benzo[1,4]dioxine-6-carbonyl)-hydrazide]",EC50,280 nM
